Test results as given in ChEMBL document CHEMBL5726097, “Combination pharmaceutical compositions and uses thereof” (2019).

By UniProt entry, the sequences of proteins in these tests, tags left out. Where a name states a change or a piece, a line headed by the entry shows the natural chain unless it says otherwise.
UniProt P48736: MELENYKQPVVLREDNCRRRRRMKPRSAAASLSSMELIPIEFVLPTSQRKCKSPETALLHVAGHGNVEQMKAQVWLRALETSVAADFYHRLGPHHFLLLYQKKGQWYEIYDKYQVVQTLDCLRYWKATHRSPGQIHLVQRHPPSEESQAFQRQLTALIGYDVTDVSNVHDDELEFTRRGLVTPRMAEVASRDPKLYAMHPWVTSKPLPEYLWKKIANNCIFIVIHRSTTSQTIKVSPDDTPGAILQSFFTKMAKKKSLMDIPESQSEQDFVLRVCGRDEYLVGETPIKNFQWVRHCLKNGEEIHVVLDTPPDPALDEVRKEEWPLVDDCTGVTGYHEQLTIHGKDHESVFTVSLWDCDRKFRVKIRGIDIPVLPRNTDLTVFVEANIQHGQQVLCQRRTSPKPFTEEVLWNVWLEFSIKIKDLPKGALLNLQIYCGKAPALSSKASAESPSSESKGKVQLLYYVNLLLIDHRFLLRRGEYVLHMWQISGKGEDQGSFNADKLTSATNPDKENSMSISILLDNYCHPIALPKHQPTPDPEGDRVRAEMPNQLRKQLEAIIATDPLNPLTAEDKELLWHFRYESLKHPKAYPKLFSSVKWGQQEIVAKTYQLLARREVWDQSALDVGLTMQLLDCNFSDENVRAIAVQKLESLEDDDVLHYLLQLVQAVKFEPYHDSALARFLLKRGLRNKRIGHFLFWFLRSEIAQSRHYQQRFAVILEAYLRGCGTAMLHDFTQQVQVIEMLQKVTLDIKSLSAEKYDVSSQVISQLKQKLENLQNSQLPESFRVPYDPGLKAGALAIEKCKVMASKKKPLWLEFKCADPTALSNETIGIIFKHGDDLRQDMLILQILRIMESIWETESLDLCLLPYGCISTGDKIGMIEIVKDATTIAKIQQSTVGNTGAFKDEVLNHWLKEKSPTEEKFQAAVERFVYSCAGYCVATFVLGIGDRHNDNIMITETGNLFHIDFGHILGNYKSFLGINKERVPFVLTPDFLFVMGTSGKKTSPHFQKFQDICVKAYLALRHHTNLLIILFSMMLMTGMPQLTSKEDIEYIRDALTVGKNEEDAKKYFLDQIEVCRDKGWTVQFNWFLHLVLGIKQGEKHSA

Assays:
[1] = biological target: Phosphatidylinositol 4,5-bisphosphate 3-kinase catalytic subunit gamma isoform (Homo sapiens, UniProt P48736)
[2] = biological target: T1, Phosphatidylinositol 4,5-bisphosphate 3-kinase catalytic subunit delta isoform (Homo sapiens, UniProt O00329)
T1 sequence (O00329 whole entry): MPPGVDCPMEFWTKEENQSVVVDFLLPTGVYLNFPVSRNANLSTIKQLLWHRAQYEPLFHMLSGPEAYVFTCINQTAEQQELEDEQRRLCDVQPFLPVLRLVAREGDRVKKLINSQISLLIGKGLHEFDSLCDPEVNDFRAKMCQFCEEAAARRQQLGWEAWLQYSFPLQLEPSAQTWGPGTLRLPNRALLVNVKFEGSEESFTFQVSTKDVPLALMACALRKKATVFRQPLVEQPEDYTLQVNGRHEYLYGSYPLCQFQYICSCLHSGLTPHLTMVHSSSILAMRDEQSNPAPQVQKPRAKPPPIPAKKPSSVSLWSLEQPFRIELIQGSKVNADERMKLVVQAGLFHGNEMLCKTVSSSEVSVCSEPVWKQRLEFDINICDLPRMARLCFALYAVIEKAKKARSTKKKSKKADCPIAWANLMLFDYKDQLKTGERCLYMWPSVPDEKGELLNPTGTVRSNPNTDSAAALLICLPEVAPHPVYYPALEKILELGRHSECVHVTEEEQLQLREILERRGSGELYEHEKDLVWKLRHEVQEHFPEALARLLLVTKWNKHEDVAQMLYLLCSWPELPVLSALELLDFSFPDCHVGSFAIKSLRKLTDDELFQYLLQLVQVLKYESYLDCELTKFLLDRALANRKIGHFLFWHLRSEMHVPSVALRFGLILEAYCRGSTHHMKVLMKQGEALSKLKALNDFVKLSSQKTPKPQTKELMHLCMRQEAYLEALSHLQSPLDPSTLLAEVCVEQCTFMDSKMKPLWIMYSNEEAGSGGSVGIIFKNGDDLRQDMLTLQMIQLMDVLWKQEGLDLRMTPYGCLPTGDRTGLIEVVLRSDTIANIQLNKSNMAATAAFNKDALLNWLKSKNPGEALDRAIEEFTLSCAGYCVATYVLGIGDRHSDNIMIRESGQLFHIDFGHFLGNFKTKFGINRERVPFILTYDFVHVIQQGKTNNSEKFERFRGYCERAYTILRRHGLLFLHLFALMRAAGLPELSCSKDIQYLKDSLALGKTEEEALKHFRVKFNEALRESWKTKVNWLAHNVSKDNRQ

Row | Structure (SMILES) | IC50 [1] [nM] | IC50 [2] [nM]
1 | Nc1nc2cc(-c3cn(C4CCOCC4)c4ncnc(N)c34)ccc2o1 | < 1000 | < 1000
2 | CC(C)n1nc(-c2ccc3c(NC4CC4)noc3c2)c2c(N)ncnc21 | < 1000 | 
3 | Nc1ncnc2c1c(-c1cc3cc(O)ccc3[nH]1)nn2C1CCCC1 | < 500 | 
